Data from the NIST ThermoML archive (doi:10.1016/j.fluid.2009.06.015).
Numbers after ± are expanded uncertainties.

Assay: excess molar enthalpy (molar enthalpy of mixing); xn = mol fraction of the nth substance listed
Conditions: 101 kPa, Liquid, Flow calorimetry

CCCCOCCCC [dibutyl ether] + CCCCO
excess molar enthalpy (298.15 K, x1 = 0.0501): 0.0285 ± 0.00112 kcal/mol
excess molar enthalpy (298.15 K, x1 = 0.1002): 0.0564 ± 0.00153 kcal/mol
excess molar enthalpy (298.15 K, x1 = 0.1497): 0.0823 ± 0.00198 kcal/mol
excess molar enthalpy (298.15 K, x1 = 0.2003): 0.107 ± 0.00239 kcal/mol
excess molar enthalpy (298.15 K, x1 = 0.2503): 0.129 ± 0.00287 kcal/mol
excess molar enthalpy (298.15 K, x1 = 0.3004): 0.149 ± 0.00335 kcal/mol
excess molar enthalpy (298.15 K, x1 = 0.3498): 0.167 ± 0.00359 kcal/mol
excess molar enthalpy (298.15 K, x1 = 0.4006): 0.182 ± 0.00406 kcal/mol
excess molar enthalpy (298.15 K, x1 = 0.4507): 0.195 ± 0.0043 kcal/mol
excess molar enthalpy (298.15 K, x1 = 0.4997): 0.204 ± 0.0043 kcal/mol
excess molar enthalpy (298.15 K, x1 = 0.5506): 0.21 ± 0.00454 kcal/mol
excess molar enthalpy (298.15 K, x1 = 0.5998): 0.213 ± 0.00454 kcal/mol
excess molar enthalpy (298.15 K, x1 = 0.6505): 0.213 ± 0.00454 kcal/mol
excess molar enthalpy (298.15 K, x1 = 0.7): 0.209 ± 0.00454 kcal/mol
excess molar enthalpy (298.15 K, x1 = 0.7509): 0.199 ± 0.0043 kcal/mol
excess molar enthalpy (298.15 K, x1 = 0.8): 0.185 ± 0.00406 kcal/mol
excess molar enthalpy (298.15 K, x1 = 0.8501): 0.162 ± 0.00359 kcal/mol
excess molar enthalpy (298.15 K, x1 = 0.8994): 0.13 ± 0.00311 kcal/mol
excess molar enthalpy (298.15 K, x1 = 0.9493): 0.0789 ± 0.00239 kcal/mol
excess molar enthalpy (313.15 K, x1 = 0.0501): 0.034 ± 0.00131 kcal/mol
excess molar enthalpy (313.15 K, x1 = 0.1003): 0.0667 ± 0.00179 kcal/mol
excess molar enthalpy (313.15 K, x1 = 0.1498): 0.0972 ± 0.00232 kcal/mol
excess molar enthalpy (313.15 K, x1 = 0.2004): 0.126 ± 0.00287 kcal/mol
excess molar enthalpy (313.15 K, x1 = 0.2502): 0.152 ± 0.00335 kcal/mol
excess molar enthalpy (313.15 K, x1 = 0.3004): 0.175 ± 0.00382 kcal/mol
excess molar enthalpy (313.15 K, x1 = 0.3497): 0.196 ± 0.0043 kcal/mol
excess molar enthalpy (313.15 K, x1 = 0.4004): 0.214 ± 0.00454 kcal/mol
excess molar enthalpy (313.15 K, x1 = 0.4505): 0.228 ± 0.00502 kcal/mol
excess molar enthalpy (313.15 K, x1 = 0.4995): 0.238 ± 0.00502 kcal/mol
excess molar enthalpy (313.15 K, x1 = 0.5503): 0.246 ± 0.00526 kcal/mol
excess molar enthalpy (313.15 K, x1 = 0.5994): 0.25 ± 0.00526 kcal/mol
excess molar enthalpy (313.15 K, x1 = 0.6502): 0.249 ± 0.00526 kcal/mol
excess molar enthalpy (313.15 K, x1 = 0.6997): 0.243 ± 0.00526 kcal/mol
excess molar enthalpy (313.15 K, x1 = 0.7506): 0.231 ± 0.00502 kcal/mol
excess molar enthalpy (313.15 K, x1 = 0.7998): 0.214 ± 0.00454 kcal/mol
excess molar enthalpy (313.15 K, x1 = 0.8499): 0.186 ± 0.00406 kcal/mol
excess molar enthalpy (313.15 K, x1 = 0.8993): 0.147 ± 0.00359 kcal/mol
excess molar enthalpy (313.15 K, x1 = 0.9494): 0.087 ± 0.00263 kcal/mol

CCCCOCCCC [dibutyl ether] + c1ccccc1
excess molar enthalpy (298.15 K, x1 = 0.0499): 0.0238 ± 0.000837 kcal/mol
excess molar enthalpy (298.15 K, x1 = 0.1001): 0.0425 ± 0.0011 kcal/mol
excess molar enthalpy (298.15 K, x1 = 0.1502): 0.0565 ± 0.00131 kcal/mol
excess molar enthalpy (298.15 K, x1 = 0.2002): 0.067 ± 0.00151 kcal/mol
excess molar enthalpy (298.15 K, x1 = 0.3003): 0.0788 ± 0.00174 kcal/mol
excess molar enthalpy (298.15 K, x1 = 0.4003): 0.0815 ± 0.00179 kcal/mol
excess molar enthalpy (298.15 K, x1 = 0.5): 0.0775 ± 0.00172 kcal/mol
excess molar enthalpy (298.15 K, x1 = 0.6): 0.0683 ± 0.00153 kcal/mol
excess molar enthalpy (298.15 K, x1 = 0.6992): 0.0554 ± 0.00127 kcal/mol
excess molar enthalpy (298.15 K, x1 = 0.7997): 0.0389 ± 0.000932 kcal/mol
excess molar enthalpy (298.15 K, x1 = 0.9): 0.0202 ± 0.000598 kcal/mol
excess molar enthalpy (313.15 K, x1 = 0.0504): 0.0222 ± 0.000789 kcal/mol
excess molar enthalpy (313.15 K, x1 = 0.0994): 0.0393 ± 0.00103 kcal/mol
excess molar enthalpy (313.15 K, x1 = 0.1501): 0.0526 ± 0.00124 kcal/mol
excess molar enthalpy (313.15 K, x1 = 0.1993): 0.0622 ± 0.00141 kcal/mol
excess molar enthalpy (313.15 K, x1 = 0.2494): 0.0691 ± 0.00155 kcal/mol
excess molar enthalpy (313.15 K, x1 = 0.3001): 0.0737 ± 0.00163 kcal/mol
excess molar enthalpy (313.15 K, x1 = 0.3493): 0.0759 ± 0.00167 kcal/mol
excess molar enthalpy (313.15 K, x1 = 0.4001): 0.0764 ± 0.00167 kcal/mol
excess molar enthalpy (313.15 K, x1 = 0.4504): 0.0753 ± 0.00167 kcal/mol
excess molar enthalpy (313.15 K, x1 = 0.4998): 0.0727 ± 0.0016 kcal/mol
excess molar enthalpy (313.15 K, x1 = 0.5501): 0.069 ± 0.00153 kcal/mol
excess molar enthalpy (313.15 K, x1 = 0.5985): 0.0642 ± 0.00143 kcal/mol
excess molar enthalpy (313.15 K, x1 = 0.65): 0.0583 ± 0.00131 kcal/mol
excess molar enthalpy (313.15 K, x1 = 0.699): 0.0517 ± 0.0012 kcal/mol
excess molar enthalpy (313.15 K, x1 = 0.751): 0.0443 ± 0.00103 kcal/mol
excess molar enthalpy (313.15 K, x1 = 0.7996): 0.0363 ± 0.000884 kcal/mol
excess molar enthalpy (313.15 K, x1 = 0.851): 0.0278 ± 0.000717 kcal/mol
excess molar enthalpy (313.15 K, x1 = 0.8982): 0.0192 ± 0.000574 kcal/mol
excess molar enthalpy (313.15 K, x1 = 0.9515): 0.00906 ± 0.00043 kcal/mol
